Source: PMC3812312 (Journal of medicinal chemistry, 2013)

Tested on: VERO cells
Assay: Cell viability assay
Assay type: cell-based
Details: VERO versus MCF-7

O=C(CCCCCCC(=O)Nc1ccccc1)NO [SAHA, suberoylanilide hydroxamic acid, reference compound]
in vitro therapeutic index (IVTI): smallest in vitro therapeutic index
